pIC50: −log10 of the molar value. Read-outs that look alike come from different tables or passages of the source.
Key:
[1] = target: T1, Trypsin (type IX from porcine pancreas) (Sus scrofa, UniProt P00761); test: biochemical
[2] = target: T1, Trypsin (type IX from porcine pancreas); conditions: read-out: IC50 or % Inhibition Trpysin II (30 µM); cells given as a plain number (IC50)

Chains of the proteins cited; added tags and fusions are not shown. Residues count along the entry.
UniProt P00761, 9-231: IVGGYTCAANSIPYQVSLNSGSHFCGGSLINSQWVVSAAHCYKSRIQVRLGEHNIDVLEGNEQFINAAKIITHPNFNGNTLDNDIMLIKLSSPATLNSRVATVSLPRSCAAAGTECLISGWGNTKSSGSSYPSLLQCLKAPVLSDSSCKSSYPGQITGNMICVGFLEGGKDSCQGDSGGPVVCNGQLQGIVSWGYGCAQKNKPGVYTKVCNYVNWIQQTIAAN

| pIC50 [1] | pIC50 [2] | SMILES |
| --- | --- | --- |
| 6.00 |  | N=C(N)c1ccc(CNC(=O)Cn2c(Cc3ccccc3)cnc(NCCc3ccccc3)c2=O)cc1 [Example 2] |
| 6.40 |  | N=C(N)NCCC[C@H](NC(=O)Cn1c(-c2ccccc2)c(Cl)nc(NCCc2ccccc2)c1=O)C(=O)c1nccs1 [Example 3] |
| 6.40 |  | N=C(N)NCCC[C@H](NC(=O)Cn1c(-c2ccccc2)cnc(NCCc2ccccc2)c1=O)C(=O)c1nccs1 [Example 6] |
| 6.40 |  | N=C(N)NCCC[C@H](NC(=O)Cn1c(Cc2ccccc2)cnc(NCCc2ccccc2)c1=O)C(=O)c1nccs1 [Example 7] |
| 6.40 |  | N=C(N)NCCC[C@H](NC(=O)Cn1c(CCc2ccccc2)cnc(NCCc2ccccc2)c1=O)C(=O)c1nccs1 [Example 8] |
| 6.00 |  | N=C(N)NCCCNC(=O)Cn1c(-c2ccccc2)cnc(NCCc2ccccc2)c1=O [Example 11] |
| 6.00 |  | N=C(N)NCCCCNC(=O)Cn1c(-c2ccccc2)cnc(NCCc2ccccc2)c1=O [Example 12] |
| 4.85 |  | N=C(N)NCCCCCNC(=O)Cn1c(-c2ccccc2)cnc(NCCc2ccccc2)c1=O [Example 13] |
| 6.52 |  | COc1ccc(-c2cnc(NCCc3ccccc3)c(=O)n2CC(=O)NCCCCNC(=N)N)cc1 [Example 14] |
| 6.00 |  | N=C(N)NCCCCNC(=O)Cn1c(-c2ccc(-c3ccccc3)cc2)cnc(NCCc2ccccc2)c1=O [Example 15] |
| 6.00 |  | N=C(N)NCCCCNC(=O)Cn1c(-c2ccc3c(c2)OCO3)cnc(NCCc2ccccc2)c1=O [Example 16] |
| 6.62 |  | CC(C)Nc1nc(Cl)c(-c2cccc(C#N)c2)n(CC(=O)NCc2ccc(C(=N)N)cc2)c1=O [Example 17] |
| 5.95 |  | N=C(N)c1ccc(CNC(=O)Cn2c(-c3ccccc3)c(Cl)nc(CN)c2=O)cc1 [Example 18] |
| 6.27 |  | N=C(N)c1ccc(CNC(=O)Cn2c(-c3ccccc3)c(Cl)nc(NCCN)c2=O)cc1 [Example 44] |
| 6.60 |  | N=C(N)c1ccc(CNC(=O)Cn2c(-c3ccccc3)c(Cl)nc(NCCCN)c2=O)cc1 [Example 45] |
| 6.64 |  | N=C(N)c1ccc(CNC(=O)Cn2c(-c3ccccc3)c(Cl)nc(NCCCCN)c2=O)cc1 [Example 46] |
| 6.70 |  | N=C(N)NCCCNc1nc(Cl)c(-c2ccccc2)n(CC(=O)NCc2ccc(C(=N)N)cc2)c1=O [Example 47] |
| 6.42 |  | N=C(N)NCCNc1nc(Cl)c(-c2ccccc2)n(CC(=O)NCc2ccc(C(=N)N)cc2)c1=O [Example 48] |
| 6.72 |  | N=C(N)NCCCCNc1nc(Cl)c(-c2ccccc2)n(CC(=O)NCc2ccc(C(=N)N)cc2)c1=O [Example 49] |
| 6.62 |  | N=C(N)CCNc1nc(Cl)c(-c2ccccc2)n(CC(=O)NCc2ccc(C(=N)N)cc2)c1=O [Example 50] |
| 6.77 |  | N=C(N)c1ccc(CNC(=O)Cn2c(-c3ccccc3)c(Cl)nc(NCc3ccc(C(=N)N)cc3)c2=O)cc1 [Example 51] |
| 6.82 |  | N=C(N)c1ccc(CNC(=O)Cn2c(-c3ccccc3)c(Cl)nc(NCc3cccc(C(=N)N)c3)c2=O)cc1 [Example 52] |
| 6.82 |  | N#CCCNc1nc(Cl)c(-c2ccccc2)n(CC(=O)NCc2ccc(C(=N)N)cc2)c1=O [Example 53] |

| pIC50 [1] | pIC50 [2] | SMILES |
| --- | --- | --- |
| 6.74 |  | CC(C)Nc1nc(Cl)c(-c2cccc(N)c2)n(CC(=O)NCc2ccc(C(=N)N)s2)c1=O [Example 55] |
| 6.35 |  | CN(C)c1cccc(-c2c(Cl)nc(NCCc3ccccc3)c(=O)n2CC(=O)NCc2ccc(C(=N)N)cc2)c1 [Example 103] |
| 6.15 |  | CNc1cccc(-c2c(Cl)nc(NC(C)C)c(=O)n2CC(=O)NCc2ccc(C(=N)N)cc2)c1 [Example 104] |
| 6.31 |  | N=C(N)c1ccc(CNC(=O)Cn2c(-c3ccccc3)cnc(NS(=O)(=O)c3ccccc3)c2=O)cc1 [Example 105] |
| 6.60 |  | N=C(N)c1ccc(CNC(=O)Cn2c(-c3ccccc3)cnc(NC(=O)Nc3ccccc3)c2=O)cc1 [Example 106] |
| 6.62 |  | N=C(N)c1ccc(CNC(=O)Cn2c(-c3ccccc3)cnc(NC(=O)Nc3cccc(N)c3)c2=O)cc1 [Example 107] |
| 6.30 |  | N=C(N)c1ccc(CNC(=O)Cn2c(-c3ccccc3)cnc(NC(=O)Nc3cc(Cl)cc(Cl)c3)c2=O)cc1 [Example 108] |
| 6.66 |  | CC(C)NC(=O)Nc1ncc(-c2ccccc2)n(CC(=O)NCc2ccc(C(=N)N)cc2)c1=O [Example 109] |
|  | 6.64 | Cc1ccccc1-c1c(Cl)nc(NCCc2ccccc2)c(=O)n1CC(=O)NCc1ccc(C(=N)N)cc1 [compound 78] |
|  | 6.80 | N=C(N)c1ccc(CNC(=O)Cn2c(-c3cccc4ccccc34)c(Cl)nc(NCCc3ccccc3)c2=O)cc1 [compound 80] |
|  | 6.66 | Cc1cccc(-c2c(Cl)nc(NCCc3ccccc3)c(=O)n2CC(=O)NCc2ccc(C(=N)N)cc2)c1 [compound 81] |
|  | 6.77 | N=C(N)c1ccc(CNC(=O)Cn2c(-c3ccc4ccccc4c3)c(Cl)nc(NCCc3ccccc3)c2=O)cc1 [compound 82] |
|  | 6.59 | N=C(N)c1ccc(CNC(=O)Cn2c(-c3cccc(N)c3)c(Cl)nc(NCCc3cccc(Cl)c3)c2=O)cc1 [compound 87] |
|  | 6.57 | N=C(N)c1ccc(CNC(=O)Cn2c(-c3cccc(N)c3)c(Cl)nc(NCc3ccccc3)c2=O)cc1 [compound 88] |
|  | 7.00 | N=C(N)c1ccc(CNC(=O)Cn2c(-c3cccc(N)c3)c(Cl)nc(NC3CCC3)c2=O)cc1 [compound 90] |
|  | 6.30 | N=C(N)NCCCC(NC(=O)Cn1c(-c2cccc(N)c2)c(Cl)nc(NCc2ccccc2)c1=O)C(=O)c1nccs1 (stereo not shown) [compound 91] |
|  | 6.60 | N=C(N)c1ccc(CNC(=O)Cn2c(-c3cccc(N)c3)cnc(NC3CCC3)c2=O)cc1 [compound 92] |
|  | 6.80 | CC(C)(C)Nc1nc(Cl)c(-c2cccc(N)c2)n(CC(=O)NCc2ccc(C(=N)N)cc2)c1=O [compound 93] |
|  | 6.62 | CN(C)Nc1nc(Cl)c(-c2cccc(N)c2)n(CC(=O)NCc2ccc(C(=N)N)cc2)c1=O [compound 94] |
|  | 6.68 | CNc1cccc(-c2c(Cl)nc(NCCc3ccccc3)c(=O)n2CC(=O)NCc2ccc(C(=N)N)cc2)c1 [compound 95] |
|  | 6.92 | CNc1cccc(-c2c(Cl)nc(NC(C)C)c(=O)n2CC(=O)NCc2ccc(C(=N)N)cc2)c1 [compound 96] |
|  | 6.62 | Cc1c(N)cccc1-c1c(Cl)nc(NC(C)C)c(=O)n1CC(=O)NCc1ccc(C(=N)N)cc1 [compound 97] |
|  | 7.15 | Cc1c(N)cccc1-c1cnc(NC(C)C)c(=O)n1CC(=O)NCc1ccc(C(=N)N)cc1 [compound 98] |
